Paper PMC6155437, “AM-2201 Inhibits Multiple Cytochrome P450 and Uridine 5′-Diphospho-Glucuronosyltransferase Enzyme Activities in Human Liver Microsomes” (Molecules : A Journal of Synthetic Chemistry and Natural …, 2017)
pIC50, pKi: −log10 of the molar value. Read-outs that look alike come from different tables or passages of the source.

By UniProt entry, the sequences of proteins in these tests, tags left out. Where a name states a change or a piece, a line headed by the entry shows the natural chain unless it says otherwise.
UniProt P05177, whole entry: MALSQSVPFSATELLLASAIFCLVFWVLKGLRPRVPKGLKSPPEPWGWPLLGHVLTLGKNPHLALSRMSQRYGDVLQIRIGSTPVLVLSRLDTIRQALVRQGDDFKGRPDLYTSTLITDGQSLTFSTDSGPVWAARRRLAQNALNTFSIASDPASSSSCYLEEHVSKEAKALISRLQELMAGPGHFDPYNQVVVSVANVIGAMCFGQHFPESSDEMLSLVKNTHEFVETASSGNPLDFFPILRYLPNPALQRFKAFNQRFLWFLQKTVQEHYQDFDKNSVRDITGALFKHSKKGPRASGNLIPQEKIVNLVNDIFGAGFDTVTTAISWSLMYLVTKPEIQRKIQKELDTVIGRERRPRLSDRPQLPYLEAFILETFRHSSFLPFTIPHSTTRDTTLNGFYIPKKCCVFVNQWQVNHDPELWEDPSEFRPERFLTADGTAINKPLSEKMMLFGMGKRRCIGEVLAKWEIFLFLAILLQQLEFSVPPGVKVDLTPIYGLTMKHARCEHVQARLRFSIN
UniProt P33261, whole entry: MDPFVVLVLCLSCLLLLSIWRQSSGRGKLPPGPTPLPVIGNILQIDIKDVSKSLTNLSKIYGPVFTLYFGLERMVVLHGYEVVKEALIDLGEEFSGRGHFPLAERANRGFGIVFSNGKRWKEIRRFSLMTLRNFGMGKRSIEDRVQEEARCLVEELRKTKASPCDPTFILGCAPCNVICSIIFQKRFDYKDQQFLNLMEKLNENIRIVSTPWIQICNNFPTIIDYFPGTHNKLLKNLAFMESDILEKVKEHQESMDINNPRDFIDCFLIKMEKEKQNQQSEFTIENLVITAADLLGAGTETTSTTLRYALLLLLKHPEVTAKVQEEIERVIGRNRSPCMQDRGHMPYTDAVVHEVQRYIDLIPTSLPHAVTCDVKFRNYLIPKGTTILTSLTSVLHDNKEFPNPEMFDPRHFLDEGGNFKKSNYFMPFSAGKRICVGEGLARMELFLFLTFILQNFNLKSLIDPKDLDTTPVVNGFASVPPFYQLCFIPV
UniProt P20813: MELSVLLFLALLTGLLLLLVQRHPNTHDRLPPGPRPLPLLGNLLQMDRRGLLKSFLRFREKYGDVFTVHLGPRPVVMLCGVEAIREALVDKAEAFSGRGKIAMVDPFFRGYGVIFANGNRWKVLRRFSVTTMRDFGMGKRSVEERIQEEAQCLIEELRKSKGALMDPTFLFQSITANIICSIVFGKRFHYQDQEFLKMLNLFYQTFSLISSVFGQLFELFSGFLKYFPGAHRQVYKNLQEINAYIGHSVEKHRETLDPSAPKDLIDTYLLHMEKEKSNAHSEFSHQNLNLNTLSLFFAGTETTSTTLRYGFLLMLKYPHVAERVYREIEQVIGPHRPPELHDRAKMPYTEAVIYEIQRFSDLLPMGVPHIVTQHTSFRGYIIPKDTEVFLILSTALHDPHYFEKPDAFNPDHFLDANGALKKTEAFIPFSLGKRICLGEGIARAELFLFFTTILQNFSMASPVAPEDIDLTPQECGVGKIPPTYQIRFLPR
UniProt P10632, whole entry: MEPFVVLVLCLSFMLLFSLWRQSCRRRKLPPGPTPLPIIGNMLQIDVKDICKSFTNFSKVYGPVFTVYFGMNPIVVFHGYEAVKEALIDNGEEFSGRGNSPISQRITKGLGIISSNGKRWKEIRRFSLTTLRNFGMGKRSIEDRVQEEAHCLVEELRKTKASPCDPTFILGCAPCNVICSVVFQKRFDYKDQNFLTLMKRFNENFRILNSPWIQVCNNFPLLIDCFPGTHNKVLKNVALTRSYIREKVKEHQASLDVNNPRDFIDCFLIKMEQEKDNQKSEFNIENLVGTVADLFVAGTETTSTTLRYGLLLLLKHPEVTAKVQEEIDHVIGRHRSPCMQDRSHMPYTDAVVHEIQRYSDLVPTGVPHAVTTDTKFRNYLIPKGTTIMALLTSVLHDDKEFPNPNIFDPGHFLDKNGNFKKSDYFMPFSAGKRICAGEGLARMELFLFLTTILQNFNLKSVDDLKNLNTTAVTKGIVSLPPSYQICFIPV
UniProt P10635, whole entry: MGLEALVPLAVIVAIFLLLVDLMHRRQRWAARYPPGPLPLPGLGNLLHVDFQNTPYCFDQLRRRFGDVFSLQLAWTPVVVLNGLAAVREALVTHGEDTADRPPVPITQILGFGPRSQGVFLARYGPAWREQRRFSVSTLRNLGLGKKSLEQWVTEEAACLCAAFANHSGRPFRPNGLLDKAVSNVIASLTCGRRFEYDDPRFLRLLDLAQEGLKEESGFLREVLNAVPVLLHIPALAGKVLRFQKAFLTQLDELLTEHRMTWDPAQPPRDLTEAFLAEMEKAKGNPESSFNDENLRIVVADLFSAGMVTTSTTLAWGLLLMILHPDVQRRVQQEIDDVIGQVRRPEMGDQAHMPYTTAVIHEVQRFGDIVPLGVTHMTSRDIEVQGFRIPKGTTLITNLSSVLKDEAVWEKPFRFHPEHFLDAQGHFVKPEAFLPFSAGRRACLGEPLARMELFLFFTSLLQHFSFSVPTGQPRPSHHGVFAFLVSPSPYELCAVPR

Experiments:
CYP1A2 = CYP1A2 (Homo sapiens, UniProt P05177); assay: CYP1A2 phenacetin O-deethylase inhibition in pooled human liver microsomes (substrate cocktail, LC-MS/MS)
Description: (§1) After a 3-min pre-incubation at 37 °C, the reactions were initiated by addition of NADPH and incubation proceeded for 15 min at 37 °C in a shaking water bath. […] The incubation mixtures were centrifuged (13,000× g, 4 min, 4 °C). All assays were performed in triplicate and mean values were used in calculations.
(§2) Each reaction was initiated by adding the seven-CYP probe substrate cocktail.
(§3) The metabolites formed from CYP substrates were quantified simultaneously by a LC-MS/MS method described previously. The ESI source settings in positive-ion mode for metabolite ionization were: capillary voltage, 4200 V; vaporizer temperature, 350 °C; capillary temperature, 330 °C; sheath gas pressure, 35 psi; and auxiliary gas pressure, 15 psi. […] Analytical data were processed using Xcalibur software (version 2.1, Thermo Scientific).
(§4) The apparent kinetic parameters for inhibitory potential (Ki and kinact values) and inhibition mode were estimated from the fitted curves using the Enzyme Kinetics program (ver. 1.1; Systat Software Inc., San Jose, CA, USA).

CYP2C19 = CYP2C19 (Homo sapiens, UniProt P33261); assay: CYP2C19 [S]-mephenytoin 4′-hydroxylase inhibition in human liver microsomes
Description: as §1, §2, §3, §4

CYP2A6 = target: T1, CYP2A6 (Homo sapiens, UniProt P11509); assay: CYP2A6 coumarin 7-hydroxylase inhibition in pooled human liver microsomes (substrate cocktail, LC-MS/MS)
T1 sequence (P11509 1-494): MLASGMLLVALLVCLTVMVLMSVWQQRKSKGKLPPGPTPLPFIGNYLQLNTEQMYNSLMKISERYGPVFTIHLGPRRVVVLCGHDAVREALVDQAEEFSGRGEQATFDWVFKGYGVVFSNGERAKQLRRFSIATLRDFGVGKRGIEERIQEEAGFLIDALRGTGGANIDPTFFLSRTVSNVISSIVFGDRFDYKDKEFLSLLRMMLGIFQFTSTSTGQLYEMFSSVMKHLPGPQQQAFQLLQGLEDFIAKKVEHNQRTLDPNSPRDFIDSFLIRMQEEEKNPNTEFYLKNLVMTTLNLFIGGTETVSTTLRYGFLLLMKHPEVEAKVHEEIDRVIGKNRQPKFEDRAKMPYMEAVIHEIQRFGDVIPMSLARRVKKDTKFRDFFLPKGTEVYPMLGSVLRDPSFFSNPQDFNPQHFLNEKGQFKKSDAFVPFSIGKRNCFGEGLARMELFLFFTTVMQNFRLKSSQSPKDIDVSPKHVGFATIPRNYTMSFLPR
Description: as §1, §2, §3, §4

CYP2B6 = CYP2B6 (Homo sapiens, UniProt P20813); assay: CYP2B6 bupropion hydroxylase inhibition in ultrapool human liver microsomes
Description: All incubations were performed in triplicate, and average values were used.
as §3, §4

CYP2C8 = target: T2, CYP2C8 (Homo sapiens, UniProt P10632); assay: CYP2C8 amodiaquine N-deethylase inhibition and mechanism-based inactivation in human liver microsomes; format: in vitro ADME; details: for kinact: inactivation of CYP2C8 amodiaquine N-deethylation, human liver microsomes
T2 construct: tissue Corning Life Sciences; host or cells: pooled human liver microsomes (150 donors)
Description: as §1, §2
The second reaction was terminated after incubation for 10 min by adding 100-µL amounts of ice-cold methanol containing d9-1′-hydroxybufuralol. The incubation mixtures were centrifuged (13,000× g, 4 min, 4 °C), and then 50 µL of each supernatant was diluted with 50 µL of water. Aliquots (5 µL) of the diluted supernatants were analyzed by LC-MS/MS.
The metabolites formed from CYP substrates were quantified simultaneously by a LC-MS/MS method described previously. The ESI source settings in positive-ion mode for metabolite ionization were: capillary voltage, 4200 V; vaporizer temperature, 350 °C; capillary temperature, 330 °C; sheath gas pressure, 35 psi; and auxiliary gas pressure, 15 psi. Quantification was performed by selected reaction monitoring (SRM) of the [M + H]^+ ion and the related product ion for each metabolite: acetaminophen, 152.1 > 110.3; N-desethylamodiaquine, 328.1 > 283.0; 7-hydroxycoumarin, 163.0 > 107.2; 4-hydroxybupropion, 256.1 > 238.0; 4′-hydroxydiclofenac, 312.0 > 231.1; 4′-hydroxy-mephenytoin; 235.1 > 150.1; 1′-hydroxybufuralol, 278.1 > 186.1; 1′-hydroxymidazolam, 341.9 > 324.0; ^13C2,^15N-acetaminophen 155.1 > 111.2; and d9-1′-hydroxybufuralol, 287.2 > 187.0. Analytical data were processed using Xcalibur software (version 2.1, Thermo Scientific).
as §4

CYP2D6 = CYP2D6 (Homo sapiens, UniProt P10635); assay: CYP2D6 bufuralol 1′-hydroxylase inhibition in human liver microsomes
Description: as §1, §2, §3, §4

UGT2B7 = target: T3, UGT2B7 (Homo sapiens, UniProt P16662); design: method as in PMID 23230132; details: UGT2B7-catalyzed ethanol glucuronidation; cited from earlier work
T3 construct: To determine Ki values of AM-2201 for UGT1A3 and UGT2B7 enzymes, human liver microsomes (0.15 mg/mL) were incubated; tissue Corning Life Sciences; host or cells: pooled human liver microsomes (150 donors)
T3 sequence (P16662 24-529): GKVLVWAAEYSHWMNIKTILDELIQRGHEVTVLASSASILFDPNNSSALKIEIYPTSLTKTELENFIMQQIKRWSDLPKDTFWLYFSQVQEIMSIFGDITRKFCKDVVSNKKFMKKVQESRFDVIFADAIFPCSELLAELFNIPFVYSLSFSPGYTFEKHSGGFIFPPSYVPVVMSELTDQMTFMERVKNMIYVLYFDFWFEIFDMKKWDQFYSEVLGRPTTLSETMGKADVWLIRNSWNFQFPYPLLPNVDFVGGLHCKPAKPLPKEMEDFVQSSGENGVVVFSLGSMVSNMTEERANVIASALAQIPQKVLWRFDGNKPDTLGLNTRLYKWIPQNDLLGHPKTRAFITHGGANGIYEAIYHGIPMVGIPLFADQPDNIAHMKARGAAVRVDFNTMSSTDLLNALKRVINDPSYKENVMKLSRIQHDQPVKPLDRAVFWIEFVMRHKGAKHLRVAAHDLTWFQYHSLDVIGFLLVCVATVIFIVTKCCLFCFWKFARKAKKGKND

O=C(c1cccc2ccccc12)c1cn(CCCCCF)c2ccccc12 [AM-2201, 1-(5-fluoropentyl-1H-indol-3-yl)-(naphthalene-1-yl)methanone]
pIC50 (CYP1A2): > 4.30 | IC50 (CYP1A2; read-out: IC50 (μM) With Preincubation, Phenacetin O-deethylase, CYP1A2, 30 min preincubation with NADPH): < 50 µM | pIC50 (CYP2C19): 4.50 | IC50 (CYP2C19; IC50 (μM) No Preincubation, [S]-Mephenytoin 4′-hydroxylase, CYP2C19, human liver microsomes, 100 μM [S]-mephenytoin): < 50 µM | pIC50 (CYP2A6): > 4.30 | IC50 (CYP2A6; read-out: IC50 (μM) With Preincubation, Coumarin 7-hydroxylase, CYP2A6, 30 min preincubation with NADPH): < 50 µM | pIC50 (CYP2B6): 4.66 | IC50 (CYP2B6; IC50 (μM) No Preincubation, Bupropion hydroxylase, CYP2B6, human liver microsomes, 50 μM bupropion): < 50 µM | kinact (CYP2C8; human, liver microsomes, pH 7.4, probe amodiaquine 2 µM (N-deethylation), read-out: Kinact (converted)): 0.000867 s⁻¹ | kinact (CYP2C8): 0.00086 s⁻¹ | IC50 shift at 0.5 h (CYP2C8; pooled liver microsomes, pH 7.4, probe amodiaquine (N-deethylation), CYP2C8 amodiaquine N-deethylation, human liver microsomes and NADPH, read-out: lowering of IC50 after 30-min pre-incubation vs without pre-incubation): > 2.5 | pIC50 (CYP2D6): > 4.30 | IC50 (CYP2D6; read-out: IC50 (μM) With Preincubation, Bufuralol 1′-hydroxylase, CYP2D6, 30 min preincubation with NADPH): < 50 µM

C=C(C)[C@@H]1CCC(C)=C[C@H]1c1c(O)cc(CCCCC)cc1O [cannabidiol]
pKi (UGT2B7): 5.01
